The target of experiment [1] is T1, human KOR (CHO cell membranes) (Homo sapiens (Human), UniProt P41145). Nature of the experiment: [35S]GTPγS binding assay, kappa receptor. Conditions: single concentration (10 μM) versus the standard U69,593. How it is done:
(§1) C6 glioma cells stably expressing the rat MOR (C6μ) or DOR (C6δ) were grown in Dulbecco's modified eagle medium (DMEM) supplemented with 10% fetal bovine serum (FBS), 90 units/ml penicillin, 90 μg/ml streptomycin, and 0.5 mg/ml geneticin. Chinese hamster ovary cells stably expressing the human KOR (CHOκ) or human NOP receptor CHO-NOP were maintained similarly, except that DMEM-F12 medium was used. All cells were grown under 5% CO2 at 37° C.
(§2) Cells were washed three times with PBS and detached from plates using harvesting buffer (20 mM HEPES, pH 7.4, 150 mM NaCl, and 0.68 mM EDTA). After centrifugation at 200×g for 3 min, the cell pellet was resuspended in 50 mM Tris-HCl, pH 7.4 and homogenized with a Tissue Tearor (Biospec Products, Inc). The homogenate was pelleted at 20,000×g for 20 min at 4° C. and the pellet resuspended in 50 mM Tris-HCl, pH 7.4 and re-homogenized. The final pellet was resuspended in 50 mM Tris-HCl, pH 7.4 and frozen in aliquots at −80° C. Protein concentration was determined using the BCA protein assay.
(§3) As described previously (Traynor and Nahorski, 1995), membranes (20 μg) from cells expressing MOR, DOR, KOR or NOP receptors are incubated in 20 mM Tris-HCl, pH 7.4, 5 mM MgCl2, 100 mM NaCl, 2.2 mM dithiothreitol (prepared freshly), 30 μM GDP, 0.1 nM [^35S]GTPγS, with or without 10 μM of test compound or 10 μM standard (DAMGO, SNC80, U50488H or N/OFQ as appropriate) or H2O for 60 min at 25° C. Samples are filtered through GF/C glass-fiber filtermats mounted on a Brandel cell harvester and rinsed four times with ice-cold 50 mM Tris-HCl, pH 7.4 containing 5 mM MgCl2, and 100 mM NaCl. Filtermats are processed as described for ligand binding above.
(§4) In a measure of functional activity, selected compounds have been evaluated in the [^35S]GTPγS assay in the same cell lines used for the binding assays (Table 2). Assays were performed as previously described by Traynor and Nahorski.^21 Agonist efficacy at MOR. KOR and NOP receptors was determined at a single concentration (10 μM) in comparison to the standard selective agonists DAMGO (MOR), and U69593 (KOR) and nociceptin (NOP) and antagonist Ke values determined against these standard agonists. For example, both 22, R=Ph (Ke(MOR) 0.47 nM, Ke(KOR) 0.41 nM) and 7a, R=Ph (Ke(MOR) 0.47 nM, Ke(KOR) 0.27 nM) are antagonists at MOR and KOR and have partial agonist activity at NOP receptors (40% and 14% of nociceptin's efficacy). 30. R=Ph also has no efficacy at MOR and KOR and is a partial agonist (57% of nociceptin) at NOP receptors.

By UniProt entry, the sequences of proteins in these tests, tags left out.
UniProt P41145, whole entry: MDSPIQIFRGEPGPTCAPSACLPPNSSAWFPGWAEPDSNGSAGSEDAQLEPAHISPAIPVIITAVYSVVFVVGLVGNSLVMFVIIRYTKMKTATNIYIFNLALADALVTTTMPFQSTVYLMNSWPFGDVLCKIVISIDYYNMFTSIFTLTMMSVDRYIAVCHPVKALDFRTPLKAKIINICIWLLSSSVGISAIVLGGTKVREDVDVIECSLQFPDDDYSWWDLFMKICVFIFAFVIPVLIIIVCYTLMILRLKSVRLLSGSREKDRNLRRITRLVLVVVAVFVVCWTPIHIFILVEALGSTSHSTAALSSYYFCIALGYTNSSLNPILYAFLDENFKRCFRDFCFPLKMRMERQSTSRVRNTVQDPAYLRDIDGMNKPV
UniProt P33535, whole entry: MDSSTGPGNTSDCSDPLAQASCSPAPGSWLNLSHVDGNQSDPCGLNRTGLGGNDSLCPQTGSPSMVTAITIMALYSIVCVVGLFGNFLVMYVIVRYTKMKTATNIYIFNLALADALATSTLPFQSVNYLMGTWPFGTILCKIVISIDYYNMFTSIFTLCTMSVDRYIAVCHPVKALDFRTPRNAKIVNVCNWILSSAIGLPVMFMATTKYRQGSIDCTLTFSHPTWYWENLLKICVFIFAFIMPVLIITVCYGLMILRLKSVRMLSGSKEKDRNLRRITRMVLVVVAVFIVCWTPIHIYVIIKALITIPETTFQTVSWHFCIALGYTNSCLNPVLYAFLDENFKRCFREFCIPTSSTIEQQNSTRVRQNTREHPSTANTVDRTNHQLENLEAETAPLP
UniProt P33533, whole entry: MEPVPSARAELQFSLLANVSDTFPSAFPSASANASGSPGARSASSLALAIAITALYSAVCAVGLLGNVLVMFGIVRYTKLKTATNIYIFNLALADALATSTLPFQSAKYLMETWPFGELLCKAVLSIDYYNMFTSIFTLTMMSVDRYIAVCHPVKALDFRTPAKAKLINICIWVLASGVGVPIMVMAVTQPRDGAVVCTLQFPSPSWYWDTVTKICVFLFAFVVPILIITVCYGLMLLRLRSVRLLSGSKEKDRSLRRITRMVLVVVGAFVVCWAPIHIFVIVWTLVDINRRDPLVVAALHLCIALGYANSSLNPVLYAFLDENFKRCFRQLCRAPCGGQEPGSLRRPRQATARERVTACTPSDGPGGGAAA

The target of experiment [2] is T2, rat MOR (C6 glioma cell membranes) (Rattus norvegicus (Rat), UniProt P33535). Nature of the experiment: [35S]GTPγS binding assay, mu receptor. Conditions: single concentration (10 μM) versus the standard DAMGO. How it is done: as §1, §2, §3, §4
Experiment [3] has as its target T1, human KOR (CHO cell membranes). Nature of the experiment: Ligand binding assay, [3H]diprenorphine, kappa opioid receptor. Particulars: read-out: Binding affinity Ki, Kappa, CHO cells transfected with human receptor. As to the method:
as §1
(§5) Cells were washed three times with PBS and detached from plates using harvesting buffer (20 mM HEPES, pH 7.4, 150 mM NaCl, and 0.68 mM EDTA). […] Protein concentration was determined using the BCA protein assay.
(§6) As Alt et al., 2002. […] Nonspecific binding is measured using 10 μM naloxone (MOR, DOR, KOR) or N/OFQ (NOP). […] Each filtermat in a heat-sealed bag, is counted in a Wallac 1450 MicroBeta Liquid Scintillation and Luminescence Counter. IC50 values for test compounds are determined from concentration effect curves and converted to Ki values using GraphPad Prism.
(§7) Binding affinities at MOPr, KO/Pr, DOPr and NOPr were measured using [^3H]diprenorphine (MOP, KOP, DOP) and [^3H]N/OFQ (NOP) binding to membranes derived from CHO cells transfected with human receptors (KOP and NOP receptors) and C6 glioma cells stably expressing rat receptors (MOP and DOP). […]

Experiment [4] has as its target T2, rat MOR (C6 glioma cell membranes). Nature of the experiment: Ligand binding assay, [3H]diprenorphine, mu opioid receptor. Conditions: read-out: Binding affinity Ki, Mu, C6 glioma cells expressing rat receptor. As to the method:
as §1, §5, §6, §7

Experiment [5] deals with rat DOR (C6 glioma cell membranes) (Rattus norvegicus (Rat), UniProt P33533). Nature of the experiment: Ligand binding assay, [3H]diprenorphine, delta opioid receptor. Conditions: read-out: Binding affinity Ki, Delta, C6 glioma cells expressing rat receptor. How it is done: as §1, §5, §6, §7
A short description of experiment [6]: Anti-writhing assay (abdominal stretch assay). Conditions: in vivo. For orientation: In writhing tests, fewer writhes than in controls are read as antinociception.
Experiment [7] is described as follows: Warm water tail withdrawal assay. Particulars: 50° C., in vivo. How it is done:
For all of the tail-withdrawal data a minimum of five mice is used in each group. Each mouse (is placed in a cylindrical restraint (Harvard Apparatus, South Natick, Mass., USA) with the tail fully exposed. Approximately one-third of the tail is immersed in water at 48° C. and latency to tail-withdrawal is measured (Janssen et al, 1963). The low temperature is to ensure that compounds with at delta or kappa agonism can be identified. Standards, test compounds or vehicle (usually sterile water) are be administered i.p. and tail-withdrawal latencies measured 25 min later. For antagonist studies compounds are administered 30 min before the first agonist dose. Baseline latencies vehicle injected mice) are typically 2-4 s. A cut-off latency of 20 s is used to prevent injury to the tail.

In the case of `CO[C@]12C=C[C@@]3(C[C@]1(C)[C@H](O)c1cccc(C)c1)[C@H]1Cc4ccc(O)c5c4[C@@]3(CCN1CC1CC1)[C@H]2O5`, the Kappa % stim in experiment [1] came out at 6%. In experiment [2], the Mu % stim is on record as 22%.
Regarding `CO[C@]12CC[C@@]3(C[C@]1(C)[C@H](O)c1ccc(F)cc1)[C@H]1Cc4ccc(O)c5c4[C@@]3(CCN1CC1CC1)[C@H]2O5`, the Mu % stim in experiment [2] was 17%.
Same read-out and setting: for `CO[C@]12CC[C@@]3(C[C@]1(C)[C@H](O)c1cccc(C)c1)[C@H]1Cc4ccc(O)c5c4[C@@]3(CCN1CC1CC1)[C@H]2O5` the value was 9%.
On to `CO[C@]12C=C[C@@]3(C[C@]1(C)[C@@H](O)c1ccccc1)[C@H]1Cc4ccc(O)c5c4[C@@]3(CCN1CC1CC1)[C@H]2O5`, for which the Ki in experiment [3] was determined as 3.02 nM; in experiment [4] it was 0.6 nM; in experiment [5] it was 1.08 nM.
Take `CO[C@]12CC[C@@]3(C[C@]1(C)[C@H](O)c1ccccc1)[C@H]1Cc4ccc(O)c5c4[C@@]3(CCN1CC1CC1)[C@H]2O5`: the Kappa % stim in experiment [1] (listed as 30, R = Ph) is 0%; in experiment [1] (listed as 30. R=Ph) it was “no efficacy”. For the same molecule, the “Opioid agonist activity in the anti-writhing assay” value in experiment [6] is listed as “no agonist activity”. The Mu % stim in experiment [2] (listed as 30, R = Ph) is 2%; in experiment [2] (listed as 30. R=Ph) it was “no efficacy”. Also, the “Opioid agonist activity in the tail withdrawal assay” value in experiment [7] is recorded as “no agonist activity”.
Consider `CO[C@]12CC[C@@]3(C[C@@H]1[C@@](C)(O)c1ccncc1)[C@H]1Cc4ccc(O)c5c4[C@@]3(CCN1CC1CC1)[C@H]2O5`, for which, in experiment [1], the Kappa % stim is −17%. For the same molecule, in experiment [2], the Mu % stim was found to be 1%.
Consider `CO[C@]12CC[C@@]3(C[C@@H]1[C@](C)(O)c1ccccc1)[C@H]1Cc4ccc(O)c5c4[C@@]3(CCN1CC1CC1)[C@H]2O5`, for which the “Opioid agonist activity in the anti-writhing assay” value in experiment [6] is given as “no agonist activity”. For the same molecule, the “Opioid agonist activity in the tail withdrawal assay” value in experiment [7] is “no agonist activity”.
For `CO[C@]12C=C[C@@]3(C[C@]1(C)[C@H](O)c1ccccc1)[C@H]1Cc4ccc(O)c5c4[C@@]3(CCN1CC1CC1)[C@H]2O5`, the “Opioid agonist activity in the anti-writhing assay” value in experiment [6] was “no agonist activity”. For the same molecule, the Mu % stim in experiment [2] was found to be 4%. Moreover, the “Opioid agonist activity in the tail withdrawal assay” value in experiment [7] is on record as “no agonist activity”.

The values above are taken from patent US9480684B2, “Orvinol and thevinol derivatives useful in the treatment of anxiety or a compulsive disorder” (dated 2016).
